Laboratory results from article PMC5565203 (Journal of medicinal chemistry, 2015).

Amino acid sequences for entries named in this document (tags omitted). Residues count along the entry.
UniProt Q07820, 172-327: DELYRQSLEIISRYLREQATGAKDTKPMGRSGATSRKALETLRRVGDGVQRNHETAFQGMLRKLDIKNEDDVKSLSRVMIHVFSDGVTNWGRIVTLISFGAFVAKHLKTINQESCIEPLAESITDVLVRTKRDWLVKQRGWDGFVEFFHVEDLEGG
UniProt Q07817, whole entry, species assumed: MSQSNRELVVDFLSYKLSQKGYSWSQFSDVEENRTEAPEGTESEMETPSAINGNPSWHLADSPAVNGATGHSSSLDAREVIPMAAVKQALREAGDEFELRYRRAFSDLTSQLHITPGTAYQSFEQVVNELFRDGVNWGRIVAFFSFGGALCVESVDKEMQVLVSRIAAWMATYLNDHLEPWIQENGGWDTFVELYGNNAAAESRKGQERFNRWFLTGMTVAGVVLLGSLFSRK
UniProt P10415, whole entry, species assumed: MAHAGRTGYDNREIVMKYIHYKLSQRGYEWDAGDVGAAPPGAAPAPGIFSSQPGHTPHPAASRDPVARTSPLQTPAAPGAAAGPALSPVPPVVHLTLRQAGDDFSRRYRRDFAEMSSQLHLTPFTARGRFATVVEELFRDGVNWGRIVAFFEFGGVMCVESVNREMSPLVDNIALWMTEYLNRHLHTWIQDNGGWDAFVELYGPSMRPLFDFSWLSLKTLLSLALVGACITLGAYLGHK

Assays:
human Mcl-1 = human Mcl-1 (Homo sapiens, UniProt Q07820); assay: FPA competition assay, displacement of FITC-Bak-BH3 peptide from Mcl-1; conditions: binding to Mcl-1
Bcl-xL = Bcl-xL (Homo sapiens, UniProt Q07817); conditions: ratio of Ki values
Bcl-2 = Bcl-2 (Homo sapiens, UniProt P10415); conditions: ratio of Ki values

Row | SMILES | LE (ligand efficiency) (human Mcl-1) | binding selectivity for Mcl-1 over Bcl-xL (Bcl-xL) [fold] | binding selectivity for Mcl-1 over Bcl-2 (Bcl-2) [fold]
1 | Cc1cc(OCCCc2c(C(=O)O)n3c4c(c(Cl)ccc24)CCC3)cc(C)c1Cl [Compound 34, 7-chloro-1-(3-(4-chloro-3,5-dimethylphenoxy)propyl)-5,6-dihydro-4H-pyrrolo[3,2,1-ij]quinoline-2-carboxylic acid] | 0.40 | > 1700 | > 100
2 | Cc1cc(OCCCc2c(C(=O)O)n3c4c(c(Cl)ccc24)OCC3)cc(C)c1Cl [Compound 35, 9-Chloro-6-(3-(4-chloro-3,5-dimethylphenoxy)propyl)-2,3-dihydro-[1,4]oxazino[2,3,4-hi]indole-5-carboxylic acid] |  | > 1700 | > 100
